ChEMBL document CHEMBL1157033, “Developing a complete pharmacology for AMPA receptors: a perspective on subtype-selective ligands” (Bioorg Med Chem, 2010)

Amino acid sequences for entries named in this document (tags omitted). A change or cut given only in a name is not applied to a line headed by its entry.
UniProt P19493: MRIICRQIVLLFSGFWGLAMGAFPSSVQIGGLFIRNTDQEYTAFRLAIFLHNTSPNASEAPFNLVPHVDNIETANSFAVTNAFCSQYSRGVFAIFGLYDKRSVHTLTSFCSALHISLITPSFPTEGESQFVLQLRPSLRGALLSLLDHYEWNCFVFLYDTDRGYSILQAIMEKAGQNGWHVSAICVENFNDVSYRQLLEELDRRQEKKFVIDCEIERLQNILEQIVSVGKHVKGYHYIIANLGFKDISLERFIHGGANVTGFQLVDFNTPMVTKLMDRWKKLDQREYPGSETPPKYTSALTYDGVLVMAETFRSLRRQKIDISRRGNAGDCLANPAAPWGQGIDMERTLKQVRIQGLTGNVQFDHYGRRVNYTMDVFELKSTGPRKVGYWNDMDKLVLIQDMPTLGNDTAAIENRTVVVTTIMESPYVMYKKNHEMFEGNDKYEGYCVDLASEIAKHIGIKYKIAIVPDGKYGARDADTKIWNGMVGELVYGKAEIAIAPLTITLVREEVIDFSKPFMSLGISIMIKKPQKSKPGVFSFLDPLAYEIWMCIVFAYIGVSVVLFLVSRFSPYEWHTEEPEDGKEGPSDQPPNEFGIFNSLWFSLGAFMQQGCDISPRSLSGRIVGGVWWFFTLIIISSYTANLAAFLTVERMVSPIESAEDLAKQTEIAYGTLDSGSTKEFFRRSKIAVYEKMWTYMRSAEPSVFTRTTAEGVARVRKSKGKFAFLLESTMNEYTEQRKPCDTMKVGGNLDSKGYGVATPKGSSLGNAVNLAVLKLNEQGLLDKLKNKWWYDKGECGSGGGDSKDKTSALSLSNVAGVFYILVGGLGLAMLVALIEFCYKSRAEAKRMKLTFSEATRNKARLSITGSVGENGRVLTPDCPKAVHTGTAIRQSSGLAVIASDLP
UniProt P19492: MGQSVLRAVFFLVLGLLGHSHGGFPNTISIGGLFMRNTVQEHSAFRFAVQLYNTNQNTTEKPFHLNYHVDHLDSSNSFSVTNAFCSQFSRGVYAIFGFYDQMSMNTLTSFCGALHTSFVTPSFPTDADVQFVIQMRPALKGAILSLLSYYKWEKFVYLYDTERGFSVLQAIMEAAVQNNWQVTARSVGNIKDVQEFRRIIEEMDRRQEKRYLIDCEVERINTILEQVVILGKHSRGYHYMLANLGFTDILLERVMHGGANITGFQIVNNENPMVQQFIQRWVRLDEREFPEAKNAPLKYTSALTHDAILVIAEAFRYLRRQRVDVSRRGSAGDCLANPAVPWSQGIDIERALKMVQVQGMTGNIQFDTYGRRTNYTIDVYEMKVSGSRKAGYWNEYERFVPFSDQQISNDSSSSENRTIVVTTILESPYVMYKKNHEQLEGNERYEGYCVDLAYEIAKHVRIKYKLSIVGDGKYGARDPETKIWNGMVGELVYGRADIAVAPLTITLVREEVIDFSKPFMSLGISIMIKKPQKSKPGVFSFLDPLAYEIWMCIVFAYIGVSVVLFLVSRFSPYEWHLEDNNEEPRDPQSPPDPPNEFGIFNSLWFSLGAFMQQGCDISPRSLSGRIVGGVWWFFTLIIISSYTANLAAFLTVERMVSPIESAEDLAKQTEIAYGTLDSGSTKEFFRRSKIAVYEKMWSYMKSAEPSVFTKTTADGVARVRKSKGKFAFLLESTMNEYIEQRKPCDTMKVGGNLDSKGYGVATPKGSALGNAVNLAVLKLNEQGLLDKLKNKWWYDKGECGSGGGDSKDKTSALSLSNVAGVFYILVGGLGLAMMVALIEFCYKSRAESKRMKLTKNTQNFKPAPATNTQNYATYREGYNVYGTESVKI

How the values were obtained:
Glutamate receptor 4 = Glutamate receptor 4 (Rattus norvegicus, UniProt P19493); assay: Agonist activity at rat recombinant GluA4 receptor flip isoform expressed in HEK293 cells assessed as effect on cyclothiazide-induced calcium flux by Fluo-4/AM staining-based fluorescence assay; format: functional, cell-based
Glutamate receptor 3 = Glutamate receptor 3 (Rattus norvegicus, UniProt P19492); assay: Agonist activity at rat recombinant GluA3 receptor flip isoform expressed in HEK293 cells assessed as effect on cyclothiazide-induced calcium flux by Fluo-4/AM staining-based fluorescence assay; format: functional, cell-based

In the case of Cc1onc(O)c1CC(N)C(=O)O (racemic) [(R,S)-AMPA], the EC50 (Glutamate receptor 4) is reported as 16 µM and the EC50 (Glutamate receptor 3) is reported as 37 µM.
